The nature of series [1]: Apparent permeability across apical to basolateral side in human Caco2 cells upto 90 mins by LC-MS/MS analysis. Type of series: ADME, cell-based. The conditions noted are these: caco-2, 1.5 h. Background: Caco-2 monolayers are a common model of the intestinal barrier.
The nature of series [2]: Aqueous solubility of compound at 1 mg after 30 hrs by HPLC analysis. The following applies: in vivo. Type of series: physicochemical.
A short description of series [3]: Clearance in rat at 2.5 mg/kg, iv or 10 mg/kg, po after 24 hrs by LC-MS/MS analysis. The following applies: in vivo.
Series [4] is described as follows: Volume of distribution in rat at 10 mg/kg, po after 24 hrs by LC-MS/MS analysis. The following applies: in vivo.
Series [5] can be described thus: Half life in rat at 2.5 mg/kg, iv after 24 hrs by LC-MS/MS analysis. The following applies: in vivo.
Series [6] in a line: AUC in rat at 2.5 mg/kg, iv after 24 hrs by LC-MS/MS analysis. The following applies: in vivo.
Series [7] in a line: Oral bioavailability in rat at 10 mg/kg after 24 hrs by LC-MS/MS analysis. The conditions noted are these: in vivo.
The nature of series [8]: Half life in rat at 10 mg/kg, po after 24 hrs by LC-MS/MS analysis. The conditions noted are these: in vivo.
A short description of series [9]: Half life in human serum at 0.5 mM after 0.5 to 24 hrs by HPLC analysis. The following applies: 500 µM.

In brackets after ≈: the same amount, converted by molar mass. Where only a bound is given, the exact number is not on record here.

In general, Papp refers to the rate of passage across a membrane or cell layer, normalised by area and donor concentration. By solubility is commonly meant the dissolved amount per volume that the medium holds. Read a low solubility as a poorly soluble substance. Turning to `CCOP(=O)(CC)NCCNc1nonc1/C(=N/O)Nc1ccc(F)c(Br)c1` (stereo not drawn), the Papp in series [1] worked out at 1.9 ×10⁻⁶ cm/s. This molecule also gave a solubility in series [2] of 250 µg/mL (≈ 522 µM).
Take `COP(C)(=O)NCCCCNc1nonc1/C(=N/O)Nc1ccc(F)c(Br)c1` (stereo not drawn): in [1], the Papp amounted to 2.1 ×10⁻⁶ cm/s. In [2], this molecule yielded a solubility of 160 µg/mL (≈ 334 µM).
As a reminder, the AUC is the area under the concentration-time curve, a measure of exposure. Read a low AUC as less exposure. As a reminder, the bioavailability is dose-corrected exposure relative to a reference, in per cent. A low value points to little systemic uptake. The molecule `COP(C)(=O)NCCNc1nonc1/C(=N/O)Nc1ccc(F)c(Br)c1` (stereo not drawn) displayed a clearance in series [3] of 46.8 mL/min/kg. In series [4], this molecule gave a Vd of 2.09 L/kg. Moreover, the Papp in series [1] was found to be 2.9 ×10⁻⁶ cm/s. The t1/2 in series [5] is 39.6 min; in series [8] it was 54.6 min; in [9], greater than 1440 min. For the same molecule, the AUC in series [6] was determined as 902 ng·h/mL. The bioavailability in series [7] amounted to 11%. The molecule further yielded a solubility in [2] of 210 µg/mL (≈ 465 µM).

For the origin of these results see ChEMBL document CHEMBL4406833 (Eur J Med Chem, 2019).
